Measured values as given in ChEMBL document CHEMBL1132115, “Discovery of the first potent and selective small molecule opioid receptor-like (ORL1) antagonist: 1-[(3R,4R)-1-cyclooctylmethyl-3- hydroxymethyl-4-piperidyl]-3-ethyl-1, 3-dihydro-2H-benzimidazol-2-one (J-113397)” (1999).
Some compounds may have been tested in ways that are not shown here.

Sequences of proteins named here, by UniProt entry; tags and fusion partners are left off.
UniProt P41145, whole entry: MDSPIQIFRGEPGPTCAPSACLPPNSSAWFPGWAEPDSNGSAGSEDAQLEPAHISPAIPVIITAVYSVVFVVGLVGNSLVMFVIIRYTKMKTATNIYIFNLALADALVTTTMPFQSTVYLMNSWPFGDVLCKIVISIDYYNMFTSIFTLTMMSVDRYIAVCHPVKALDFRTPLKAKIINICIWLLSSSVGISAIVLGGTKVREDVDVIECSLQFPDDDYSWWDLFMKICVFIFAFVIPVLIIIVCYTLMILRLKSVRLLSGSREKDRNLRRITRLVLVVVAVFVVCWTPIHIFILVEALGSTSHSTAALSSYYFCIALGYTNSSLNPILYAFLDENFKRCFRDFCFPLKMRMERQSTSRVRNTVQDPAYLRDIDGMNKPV
UniProt P41146, whole entry: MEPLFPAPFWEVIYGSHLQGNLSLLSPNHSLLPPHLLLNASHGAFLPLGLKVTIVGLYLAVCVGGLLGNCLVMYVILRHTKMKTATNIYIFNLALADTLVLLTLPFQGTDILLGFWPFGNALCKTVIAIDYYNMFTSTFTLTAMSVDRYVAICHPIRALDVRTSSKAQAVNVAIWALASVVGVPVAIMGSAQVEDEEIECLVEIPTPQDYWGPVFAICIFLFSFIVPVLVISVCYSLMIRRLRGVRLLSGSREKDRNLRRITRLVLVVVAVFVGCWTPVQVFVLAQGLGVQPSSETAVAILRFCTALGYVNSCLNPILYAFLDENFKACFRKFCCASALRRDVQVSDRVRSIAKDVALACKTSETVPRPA
UniProt P35372, whole entry: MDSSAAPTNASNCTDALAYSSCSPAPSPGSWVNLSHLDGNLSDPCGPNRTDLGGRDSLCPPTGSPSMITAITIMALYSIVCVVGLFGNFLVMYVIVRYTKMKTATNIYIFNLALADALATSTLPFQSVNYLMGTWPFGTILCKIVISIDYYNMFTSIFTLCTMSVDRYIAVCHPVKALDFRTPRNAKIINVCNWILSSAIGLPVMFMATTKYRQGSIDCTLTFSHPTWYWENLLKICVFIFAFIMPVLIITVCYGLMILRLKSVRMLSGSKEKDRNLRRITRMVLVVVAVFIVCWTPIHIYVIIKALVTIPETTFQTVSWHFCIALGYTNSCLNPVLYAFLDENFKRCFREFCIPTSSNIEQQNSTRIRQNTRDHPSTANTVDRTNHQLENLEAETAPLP
UniProt P41143, whole entry: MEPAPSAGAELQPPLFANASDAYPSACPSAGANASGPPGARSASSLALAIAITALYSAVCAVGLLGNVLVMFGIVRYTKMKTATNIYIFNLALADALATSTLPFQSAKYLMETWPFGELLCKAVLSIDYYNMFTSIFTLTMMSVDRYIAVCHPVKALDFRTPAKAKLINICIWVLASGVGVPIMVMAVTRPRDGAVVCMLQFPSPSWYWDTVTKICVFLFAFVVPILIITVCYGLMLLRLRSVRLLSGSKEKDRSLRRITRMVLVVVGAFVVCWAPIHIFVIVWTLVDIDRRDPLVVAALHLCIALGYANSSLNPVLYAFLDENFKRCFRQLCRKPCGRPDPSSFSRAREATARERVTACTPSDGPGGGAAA

Legend:
[1] = molecular target: T1, Kappa-type opioid receptor (Homo sapiens, UniProt P41145); assay: Inhibition of [3H]U-69593 binding to human Opioid receptor kappa 1 in CHO cells
Nociceptin receptor [2] = molecular target: T2, Nociceptin receptor (Homo sapiens, UniProt P41146); assay: Agonistic activity measured by GTPgammaS binding against Opioid receptor like 1 in CHO cells
Nociceptin receptor [3] = molecular target: T2, Nociceptin receptor; assay: Inhibition of [125I]Tyr14-nociceptin binding to human Opioid receptor like 1 (opioid receptor like 1) in CHO cells
Mu-type opioid receptor = Mu-type opioid receptor (Homo sapiens, UniProt P35372); assay: Inhibition of [3H]diprenorphine binding to human Opioid receptor mu 1 in CHO cells
[4] = molecular target: T3, Delta-type opioid receptor (Homo sapiens, UniProt P41143); assay: Inhibition of [3H][D-Ala2,D-Leu5]enkephalin binding to human Opioid receptor delta 1 in CHO cells
Nociceptin receptor [5] = molecular target: T2, Nociceptin receptor; assay: Antagonistic activity measured by GTPgammaS binding against Opioid receptor like 1 in CHO cells
Nociceptin receptor [6] = molecular target: T2, Nociceptin receptor; assay: Agonistic activity against nociceptin produced GTPgammaS binding to Opioid receptor like 1 expressed in CHO cells
[7] = molecular target: T3, Delta-type opioid receptor; assay: Binding affinity in CHO cells stably expressing cloned human Opioid receptor delta 1 by displacing radioligand [3H][D-Ala2,D-Leu5]enkephalin
Nociceptin receptor [8] = molecular target: T2, Nociceptin receptor; assay: Binding affinity in CHO cells stably expressing cloned human Opioid receptor like 1 by displacing radioligand [125I]Tyr14-nociceptin
[9] = molecular target: T1, Kappa-type opioid receptor; assay: Binding affinity in CHO cells stably expressing cloned human Opioid receptor kappa 1 by displacing radioligand [3H]U-69593
Nociceptin receptor [10] = molecular target: T2, Nociceptin receptor; assay: Antagonistic activity against nociceptin produced [35S]GTP-gamma-S, binding to Opioid receptor like 1 expressed in CHO cells
Nociceptin receptor [11] = molecular target: T2, Nociceptin receptor; assay: Agonistic activity measured by GTPgammaS binding against Opioid receptor like 1 in CHO cells.

Row | Compound | IC50 [1] [nM] | EC50 (Nociceptin receptor [2]) [µM] | IC50 (Nociceptin receptor [3]) [nM] | IC50 (Mu-type opioid receptor) [nM] | IC50 [4] [µM] | IC50 (Nociceptin receptor [5]) [nM] | EC50 (Nociceptin receptor [6]) [µM] | IC50 [7] [nM] | IC50 (Nociceptin receptor [8]) [nM] | IC50 [9] [nM] | IC50 (Nociceptin receptor [10]) [µM] | EC50 (Nociceptin receptor [11]) [µM]
1 | CCn1c(=O)n(C2CCN(CC3CCCCCCC3)CC2)c2ccccc21 | 440 | > 10 | 6.8 | 950 | > 10 | 20 | – | – | – | – | – | –
2 | O=c1[nH]c2ccccc2n1C1CCN(Cc2ccccc2)CC1 | – | – | – | – | – | – | 6.9 | > 10000 | 200 | 110 | > 10 | –
3 | O=c1[nH]c2ccccc2n1C1CCN(CC2CCCCCCC2)CC1 | 12 | – | 6.8 | 780 | > 10 | 20 | – | – | – | – | – | > 10
4 | CC(c1ccccc1Cl)N1CCC(n2c(O)nc3ccccc32)CC1 (configuration not stated) | – | – | – | – | – | – | 0.025 | 1900 | 5.9 | 32 | > 10 | –
